The assay has as its system ET (luc-ubi-neo/ET) cell line, Huh7 human hepatoma. Description: cells. The settings on record: Huh-7, 72 h.

Structures are written as SMILES. Like-named read-outs stand apart in the source and are kept apart here.

As for `Cc1ccc(C(=O)N2CCC(F)(c3ccc(C#N)cc3)CC2)cc1NC(=O)NC1CCOC1` (centres unmarked) [(I-Z)], the IC50 by setting is: (read-out: Cell IC50, Luc assay system: CytoTox-1 cell proliferation assay) above 32 µM; (read-out: Cell IC50, RNA-based assay: rRNA levels via TaqMan RT-PCR) above 100 µM.

These data come from patent publication US10189822B2, “Heterocyclic modulators of lipid synthesis” (3-V Biosciences, Inc., priority 2015, dated 2019).
